The target in one test is 5-HT2A receptor (Homo sapiens, UniProt P28223). Nature of the test: FLIPR calcium mobilization functional assay, human 5-HT2A receptor. Particulars: for fold lower 5-HT2A receptor affinity than 5: Ke compared with compound 5; for Selectivity α1A/5-HT2A: ratio of Ke α1A / Ke 5-HT2A. On the technique in general: Calcium flux is commonly read through the fluorescence of an indicator in the cells.

Sequences of proteins named here, by UniProt entry; tags and fusion partners are left off.
UniProt P28223, whole entry: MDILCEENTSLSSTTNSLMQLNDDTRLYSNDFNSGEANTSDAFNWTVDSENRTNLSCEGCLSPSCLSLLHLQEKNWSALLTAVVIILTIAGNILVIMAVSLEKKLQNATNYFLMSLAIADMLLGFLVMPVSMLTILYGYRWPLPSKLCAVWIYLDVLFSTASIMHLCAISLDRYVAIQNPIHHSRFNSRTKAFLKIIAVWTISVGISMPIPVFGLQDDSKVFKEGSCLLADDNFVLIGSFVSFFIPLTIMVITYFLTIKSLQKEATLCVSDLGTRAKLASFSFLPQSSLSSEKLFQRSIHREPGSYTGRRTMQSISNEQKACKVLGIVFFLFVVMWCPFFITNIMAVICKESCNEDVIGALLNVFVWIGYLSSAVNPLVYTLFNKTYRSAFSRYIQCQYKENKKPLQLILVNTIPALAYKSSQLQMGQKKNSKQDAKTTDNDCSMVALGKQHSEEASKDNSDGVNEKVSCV

Another test has as its target T1, α1A adrenergic receptor (Homo sapiens, UniProt P35348).
T1 sequence (P35348 1-466): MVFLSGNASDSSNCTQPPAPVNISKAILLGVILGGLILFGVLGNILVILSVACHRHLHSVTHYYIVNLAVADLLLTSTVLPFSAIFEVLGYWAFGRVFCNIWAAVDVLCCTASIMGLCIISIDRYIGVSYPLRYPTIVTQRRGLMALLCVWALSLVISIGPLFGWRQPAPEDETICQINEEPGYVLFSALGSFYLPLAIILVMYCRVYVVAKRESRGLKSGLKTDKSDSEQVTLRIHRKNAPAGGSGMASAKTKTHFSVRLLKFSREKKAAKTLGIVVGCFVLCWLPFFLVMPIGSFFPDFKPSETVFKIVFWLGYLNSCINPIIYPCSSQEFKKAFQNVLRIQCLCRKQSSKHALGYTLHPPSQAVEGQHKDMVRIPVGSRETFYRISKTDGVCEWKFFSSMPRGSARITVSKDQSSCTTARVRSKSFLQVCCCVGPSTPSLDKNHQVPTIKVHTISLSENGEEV
The test can be described thus: FLIPR calcium mobilization functional assay, α1A adrenergic receptor.

On to `C=C(C)COc1c(OC)cc2c3c1-c1cc4c(cc1CC3N(C)CC2)OCO4` (stereo not shown) [Compound 8b], for which, on 5-HT2A receptor, the Kb came to 172 ± 71 nM, the “fold lower 5-HT2A receptor affinity than 5” value was determined as 2 fold and the “Selectivity α1A/5-HT2A” value is listed as > 58.

For `C=CCCCOc1c(OC)cc2c3c1-c1cc4c(cc1CC3N(C)CC2)OCO4` (stereo not shown) [Compound 8f], the Kb on 5-HT2A receptor and on α1A adrenergic receptor was > 10000 nM in each case.

In the case of `COc1cc2c3c(c1OCC=C(C)C)-c1cc4c(cc1CC3N(C)CC2)OCO4` (stereo not shown) [Compound 8c], at 5-HT2A receptor, the Kb is 2070 nM, the “fold lower 5-HT2A receptor affinity than 5” value came out at 30 fold and the “Selectivity α1A/5-HT2A” value is > 5.

On to `C=CCOc1c(OC)cc2c3c1-c1cc4c(cc1CC3N(C)CC2)OCO4` (stereo not shown) [Compound 5], for which, on 5-HT2A receptor, the Kb was found to be 70 ± 15 nM and the “Selectivity α1A/5-HT2A” value is >143.

For `C/C=C/COc1c(OC)cc2c3c1-c1cc4c(cc1CC3N(C)CC2)OCO4` (stereo not shown) [Compound 8a], the Kb at 5-HT2A receptor amounted to 723 ± 68 nM.

Regarding `CC#CCOc1c(OC)cc2c3c1-c1cc4c(cc1CC3N(C)CC2)OCO4` (stereo not shown) [Compound 8d], the Kb at 5-HT2A receptor came to 2690 nM; on α1A adrenergic receptor, 557 ± 111 nM.

The values above are taken from paper PMC4628873 (Bioorganic & medicinal chemistry letters, 2015).
